# This is one part of the list.
# System: A. baumannii ATCC 17978
# Assay: relative growth (fraction of control); higher = less inhibition
# Conditions: 50 µM
row,SMILES,relative growth
1,COC(=O)c1c(N)c(C#N)c2n1CCC2,0.893
2,CN(C)CCCNC(=O)C[C@@H]1CC[C@H](NS(=O)(=O)c2ccccc2)[C@@H](CO)O1,0.987
3,CSc1cccc(NC(=O)/C=C/c2ccc(C(C)C)cc2)c1,1.22
4,COc1ccc([C@H]([C@H](Cc2ccccc2)OC(C)=O)N(C/C=C\[C@@H](O)c2ccccc2)[C@@H](Cc2ccccc2)C(OC)OC)cc1,1.22
5,CN1CCN(C(=O)C[C@H]2CC[C@@H]3[C@H](COC[C@H](O)CN3C(=O)Nc3cc(Cl)cc(Cl)c3)O2)CC1,1
6,O=C(C[C@H]1C[C@H]2c3cc(NC(=O)c4ccc5c(c4)OCO5)ccc3O[C@H]2[C@H](CO)O1)NCCc1ccccc1,0.891
7,COCCOC(=O)N1C(=O)[C@@]2(c3cc(C#CCNC(N)=O)ccc31)[C@H](C(N)=O)[C@H]1C(=O)O[C@H](c3ccccc3)[C@H](c3ccccc3)N1[C@@H]2c1ccccc1OCCO,0.959
8,Cc1ccc(S(=O)(=O)NCC[C@@H]2CC[C@@H](NS(=O)(=O)c3ccccc3Cl)[C@H](CO)O2)cc1,1.11
9,Cn1nnc2c(C(N)=O)ncn2c1=O,0.937
10,Cn1cnc(S(=O)(=O)N[C@H]2CC[C@H](CC(=O)NCC3CC3)O[C@@H]2CO)c1,0.815
11,COc1ccc(S(=O)(=O)N(CC(=O)O)c2ccc(N(CC(=O)O)S(=O)(=O)c3ccc(OC)cc3)c3ccccc23)cc1,1.13
12,COc1ccccc1C#Cc1cnc2c(c1)C(=O)N([C@H](C)CO)C[C@@H](C)[C@@H](CN(C)C(=O)CC1CC1)O2,0.789
13,Cn1cnc(CCNC(=O)C[C@H]2CC[C@@H]3[C@H](COC[C@@H](O)CN3C(=O)C3CC3)O2)c1,0.857
14,COc1ccc(S(=O)(=O)N[C@@H]2CC[C@H](CC(=O)N3CCN(c4ccccc4)CC3)O[C@H]2CO)cc1,1
15,CN1CCN(C(=O)C[C@H]2CC[C@@H]3[C@H](COC[C@H](O)CN3C(=O)C3CCCC3)O2)CC1,0.929
16,CC(C)NCC(O)COc1cccc2[nH]ccc12 (stereo unspecified),1.06
17,COC[C@@H]1CNN1C(=O)c1cc(C)oc1C,1.15
18,C/C=C/c1cnc2c(c1)C(=O)N([C@H](C)CO)C[C@@H](C)[C@H](CN(C)S(=O)(=O)c1ccc(OC)cc1)O2,0.851
19,CCOc1ccc(/C=C/C(=O)Sc2ccc(Cl)cc2)cc1,1.47
20,COc1cccc(NC(=O)N2C[C@H](O)COC[C@@H]3O[C@H](CC(=O)NCCCN4CCOCC4)CC[C@H]32)c1,1.15
21,COc1cccc(S(=O)(=O)N[C@@H]2CC[C@@H](CC(=O)NC3CCC3)O[C@H]2CO)c1,1.01
22,NC(=O)c1ccc(CN2CCOCC2)cc1,1.05
23,CC(C)CNc1nc(=O)cn[nH]1,0.987
24,CCOC(=O)CCn1cc(F)c(=O)[nH]c1=O,0.772
25,Cn1cnc(S(=O)(=O)N[C@H]2CC[C@@H](CC(=O)NCC3CC3)O[C@H]2CO)c1,0.907
26,CC1=C(/C=C/C(C)=C/C=C/C(C)=C/C=C/C=C(C)/C=C/C=C(C)/C=C/C(=O)[C@]2(C)C[C@@H](O)CC2(C)C)C(C)(C)C[C@H](O)C1,1.06

row,SMILES,relative growth
1,O=C(O)c1cc(O)ccc1O,1.09
2,O=C(C[C@H]1CC[C@H]2[C@@H](COC[C@H](O)CN2C(=O)c2ccccc2)O1)NCCCN1CCOCC1,1.19
3,CC1(O)CCC(C(C)(C)O)CC1.O (stereo unspecified),1.37
4,CCCCCCC#C[Si](O[C@H](c1ccccc1)c1cn([C@H](C)c2ccccc2)nn1)(C(C)C)C(C)C,0.687
5,COc1cc(C)c(C(=O)Oc2cc(C)c(C(=O)O)c(O)c2)c(O)c1,1.01
6,O=C1O[C@@H](c2ccccc2)[C@@H](c2ccccc2)N2[C@@H](c3ccccc3OCCO)[C@]3(C(=O)Nc4ccc(C#CC5=CCCCC5)cc43)[C@@H](C(=O)N3CCCCCCC3)[C@H]12,0.989
7,O=C(Cc1ccncc1)NCC[C@@H]1CC[C@H](NC(=O)C2CCOCC2)[C@H](CO)O1,1.07
8,Nc1cc(=O)[nH]c(=O)n1-c1ccc(Cl)cc1,1.04
9,CS(=O)(=O)Nc1ccc2c(c1)[C@H]1C[C@@H](CC(=O)NCC3CC3)O[C@H](CO)[C@H]1O2,0.966
10,CN(C)CC(=O)N[C@H]1C=C[C@H](CC(=O)NCCN2CCCCC2)O[C@@H]1CO,1.03
11,C[N+](C)(C)C[C@H](O)CC(=O)[O-],1
12,O=C(O[C@@H]1Cc2c(O)cc(O)cc2O[C@@H]1c1cc(O)c(O)c(O)c1-c1c([C@H]2Oc3cc(O)cc(O)c3C[C@H]2OC(=O)c2cc(O)c(O)c(O)c2)cc(O)c(O)c1O)c1cc(O)c(O)c(O)c1,1.01
13,Cc1ccc(Cc2nc(-c3ccc(Cl)cc3)cs2)cc1,1.25
14,Cc1ccc2nc3c(cc(C(=O)NCCN4CCOCC4)c(=N)n3C[C@H]3CCCO3)c(=O)n2c1,1.02
15,CN(C)c1nc2ncnc(N)c2[nH]1,1.04
16,COc1ccc(C#Cc2ccc3c(c2)[C@]2(C(=O)N3)[C@H](C(=O)N3CCCCCCC3)[C@H]3C(=O)O[C@H](c4ccccc4)[C@H](c4ccccc4)N3[C@@H]2c2ccc(O)cc2)cc1,0.978
17,COCC#Cc1ccc2c(c1)O[C@@H](CN(C)S(=O)(=O)c1cccc(F)c1)[C@H](C)CN([C@@H](C)CO)S2(=O)=O,0.929
18,O=C1c2ccccc2[C@](Cc2ccccc2I)(C(=O)NCCN2CCOCC2)[C@H](c2ccc(CO)cc2)N1C1CCCCC1,0.795
19,COc1ccc(-c2cc(=O)c3c(OC)cc(OC)cc3o2)cc1,1.03
20,COCC#Cc1ccc2c(c1)O[C@@H](CN(C)C(=O)c1ccccc1F)[C@@H](C)CN([C@@H](C)CO)S2(=O)=O,1.15
21,Cn1cnc(S(=O)(=O)N[C@H]2CC[C@@H](CC(=O)Nc3ccccc3)O[C@H]2CO)c1,0.981
22,NCC[C@@H]1CC[C@@H](NC(=O)Cc2ccncc2)[C@H](CO)O1,1.21
23,C=CC[C@H](CC(=O)N(CCO)Cc1ccccc1)C(=O)N[C@H](COC(=O)[C@H](CC=C)NC(=O)OCC1c2ccccc2-c2ccccc21)C(C)(C)C,1.05
24,CC(C)c1c(O)ccc2c1CCC1[C@@](C)(C=O)CCC[C@]21C (stereo partly specified),0.921
25,O=S(=O)([O-])c1cc(O)c2c(/N=N/c3ccc(Nc4ccccc4)c4c(S(=O)(=O)[O-])cccc34)cc(S(=O)(=O)[O-])cc2c1.[Na+].[Na+].[Na+],2.12

# From published antibiotic growth screens (doi:10.1038/s41589-023-01349-8)
